Values quoted from earlier work as cited in patent US20260144817A1, “IN[…] THERAPY IN BCG-EXPOSED PATIENTS” (priority 2022, published 2026).

Conditions: patients; printed 'as high as'

Substance: cyclophosphamide and fludarabine
- toxicity: 30-40%
